Drawing on PubChem BioAssay AID1259313 (Sanford-Burnham Center for Chemical Genomics, 2017), this text covers Tm shift relative to glycine control for 59 molecules.

Each structure is given as a SMILES string. This is a selection; strong and weak results do not stand in their true shares. Some salts and complexes are drawn in separate pieces, as the source files them; their charges need not balance. Calls of active or inactive are those of the source.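 How the source made its calls: active means melting temperature shift of at least 10% of the positive control shift, at one fixed dose; inactive means the rest.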

The subject of the assay is Glutamate receptor ionotropic, NMDA 3A (GRIN3A) ligand-binding domain. As to the kind of experiment: NR3A LBD thermal stabilization by compounds – biophysical, differential scanning fluorimetry, uHTS, primary screen (AID 1259313). The note with it: at 25 µM, stronger effect = higher value, 0% = protein alone, 100% = glycine-bound protein.
Regarding `COc1ccccc1OP(C)(=O)Nc1ccc(Br)cc1` (centres undefined), the Tm shift relative to glycine control was inactive: -0.16%.
For `CN(C)CCOC(=O)C(O)(c1ccccc1)C1CCCC1` (centres undefined), the Tm shift relative to glycine control was inactive: 1.09%.
Consider `COc1ccc(OP(C)(=O)Nc2ccccn2)cc1` (centres undefined), for which the Tm shift relative to glycine control was inactive: -4.1%.
Then `Cc1c(NP(C)(=O)Oc2ccc(C(C)C)cc2)c(=O)n(-c2ccccc2)n1C` (centres undefined), with inactive: -0.71%; and `O=[N+]([O-])c1cc([N+](=O)[O-])c(Nc2ccccn2)c([N+](=O)[O-])c1`, with inactive: 2.37%.
Under `CCc1ccc(OP(C)(=O)O)cc1` stands inactive: -0.88%; under `COc1ccccc1OP(C)(=O)Nc1ccc(C)cc1C` (centres undefined), inactive: 0.26%.
For `CP(=O)(Nc1ccccn1)Oc1ccccc1` (centres undefined), the Tm shift relative to glycine control was inactive: -2.23%.
Then `Cc1cc(C)cc(OP(C)(=O)Nc2cccc(C(F)(F)F)c2)c1` (centres undefined), with inactive: -0.5%; and `O=C1C(O)=C([N+](=O)[O-])C(=O)C(O)=C1[N+](=O)[O-]`, with inactive: 1.95%; and `COc1ccc(OP(C)(=O)Nc2ccccc2Br)cc1` (centres undefined), with inactive: -3.72%.
Then `COc1ccccc1OP(C)(=O)Nc1ccc(C)c(C)c1` (centres undefined), with inactive: -0.37%.
Under `CP(=O)(Nc1ccc(Cl)cc1Cl)Oc1ccccc1` (centres undefined) stands inactive: -0.24%; under `CCCCCCCCCCCCCCCC1C[N+](C)(C)CCOP(C)(=O)O1` (centres undefined), inactive: -10.4%.
`CP(=O)(OCCOc1ccccc1)OCCOc1ccccc1`: the Tm shift relative to glycine control is inactive: -0.75%.
Under `Nc1ccc2c(ccc3cccnc32)n1.O=[N+]([O-])c1cc([N+](=O)[O-])c(O)c([N+](=O)[O-])c1` stands inactive: -0.36%.
Take `CP(=O)(OC12CC3CC(CC(C3)C1)C2)OC12CC3CC(CC(C3)C1)C2`: the Tm shift relative to glycine control was inactive: -1.14%.
As to `CCOC(=O)c1ccc(NP(C)(=O)Oc2ccc(Cl)cc2)cc1` (centres undefined), the Tm shift relative to glycine control is inactive: -1.66%.
Consider `COc1ccc(OP(C)(=O)Nc2ccc(Br)cc2)cc1` (centres undefined), for which the Tm shift relative to glycine control is inactive: -2.19%.
Then `CCN(CC)CC(O)COC(=O)C(O)(c1ccccc1)C1CCCCC1` (centres undefined), with inactive: 0.17%; and `CCc1ccc(OP(C)(=O)Nc2cccnc2)cc1` (centres undefined), with inactive: -2.73%.
With `CP(=O)(Oc1ccccc1)N1CCOC1=O` (centres undefined), the Tm shift relative to glycine control was inactive: -3.98%.
With `O=C(OCCCN1CCCC1)C(O)(c1ccccc1)C1CCCCC1` (centres undefined), the Tm shift relative to glycine control was inactive: 1.13%.
With `COc1ccccc1OP(C)(=O)Nc1c(C)n(C)n(-c2ccccc2)c1=O` (centres undefined), the Tm shift relative to glycine control was inactive: -0.95%.
Regarding `CP(=O)(Nc1ccc(Cl)cc1)Oc1ccc(F)cc1` (centres undefined), the Tm shift relative to glycine control is inactive: -1.03%.
Take `COc1ccccc1OP(C)(=O)Nc1ccccc1Br` (centres undefined): the Tm shift relative to glycine control was inactive: -0.77%.
Under `CC(C)(C)c1ccc(OP(C)(=O)O)cc1` stands inactive: -1.33%; under `CN(C)C(=O)c1c([N+](=O)[O-])cc([N+](=O)[O-])cc1[N+](=O)[O-]`, inactive: -3.51%.
In the case of `CP(=O)(Nc1ccc(SC(F)(F)F)cc1)Oc1ccc(F)cc1` (centres undefined), the Tm shift relative to glycine control is inactive: 1.09%.
For the molecule `CCOP(C)(=S)SCC(=O)NC(C)(CC)C(=O)O` (centres undefined), the Tm shift relative to glycine control was inactive: -3.66%.
For `CP(=O)(Nc1ccc2c(c1)OCCO2)Oc1ccccc1` (centres undefined), the Tm shift relative to glycine control was inactive: -5.29%.
Regarding `Cc1ccccc1NP(C)(=O)Nc1ccccc1C`, the Tm shift relative to glycine control was inactive: -5.26%.
Consider `COc1ccc(OP(C)(=O)Nc2cccc(Br)c2)cc1` (centres undefined), for which the Tm shift relative to glycine control is inactive: 0.51%.
Then `COc1ccc(NP(C)(=O)Oc2ccccc2OC)cc1` (centres undefined), with inactive: -1.34%; and `CN(C)CCOC(=O)C(O)(c1ccccc1)C1CCCCC1` (centres undefined), with inactive: -0.9%.
Take `O=[N+]([O-])c1cc([N+](=O)[O-])c(NCC2CCS(=O)(=O)C2)c([N+](=O)[O-])c1` (centres undefined): the Tm shift relative to glycine control is inactive: -2.72%.
`Cc1cc(-c2cccc3ccccc23)c(C)cn1.O=[N+]([O-])c1cc([N+](=O)[O-])c(O)c([N+](=O)[O-])c1`: the Tm shift relative to glycine control was inactive: -7.14%.
Regarding `O=[N+]([O-])c1ccc(OP2(=O)COCCO2)cc1` (centres undefined), the Tm shift relative to glycine control is inactive: 0.78%.
Then `Cc1c(C(c2ccc3c(c2)OCO3)c2c(C)n(C)n(-c3ccccc3)c2=O)c(=O)n(-c2ccccc2)n1C.O=[N+]([O-])c1cc([N+](=O)[O-])c(O)c([N+](=O)[O-])c1`, with inactive: -0.93%; and `COc1ccc(OP(C)(=O)Nc2ccc(SC(F)(F)F)cc2)cc1` (centres undefined), with inactive: -0.68%.
Under `CCOC(=O)c1ccc(NP(C)(=O)Oc2ccc(F)cc2)cc1` (centres undefined) stands inactive: -4.29%.
Under `CCN(CC)CCCOC(=O)C(O)(c1ccccc1)C1CCCCC1` (centres undefined) stands inactive: 0%.
`Cc1c([N+](=O)[O-])cc([N+](=O)[O-])c(Br)c1[N+](=O)[O-]`: the Tm shift relative to glycine control was inactive: -2.36%.
As to `O=[N+]([O-])c1cc([N+](=O)[O-])c(OC2CCCCC2O)c([N+](=O)[O-])c1` (centres undefined), the Tm shift relative to glycine control is inactive: -0.88%.
In the case of `CCCCCOc1ccc(NP(C)(=O)Oc2ccc(Cl)cc2Cl)cc1` (centres undefined), the Tm shift relative to glycine control was inactive: -5.89%.
As for `CP(=O)(Nc1ccccc1)Oc1ccc(F)cc1` (centres undefined), the Tm shift relative to glycine control was inactive: -2.52%.
Take `CC(C)c1ccc(OP(C)(=O)Nc2ccc(SC(F)(F)F)cc2)cc1` (centres undefined): the Tm shift relative to glycine control is inactive: -28%.
In the case of `CP(=O)(Nc1ccccc1F)Oc1ccccc1` (centres undefined), the Tm shift relative to glycine control is inactive: -2.66%.
Under `O=C(OCCN1CCN(CCOCc2ccccc2)CC1)C(O)(c1ccccc1)c1ccccc1` stands inactive: 0.86%.
Under `O=C(OC1CN2CCC1CC2)c1ccc([N+](=O)[O-])cc1` (centres undefined) stands inactive: -1.91%; under `COc1ccc2c(c1O)-c1c(O)c(OC)cc3c1[C@H](C2)[N+](C)(C)CC3.O=[N+]([O-])c1cc([N+](=O)[O-])c([O-])c([N+](=O)[O-])c1[O-]`, inactive: 1.74%; under `COc1ccccc1OP(C)(=O)Nc1cccc(Br)c1` (centres undefined), inactive: -2.15%.
Turning to `Cc1cc(C)cc(OP(C)(=O)Nc2ccc(C)cc2C)c1` (centres undefined), the Tm shift relative to glycine control is inactive: -12.6%.
In the case of `CCOC(=O)c1ccc(NP(C)(=O)Oc2cc(C)cc(C)c2)cc1` (centres undefined), the Tm shift relative to glycine control is inactive: 6%.
Then `Cc1cc(C)cc(OP(C)(=O)Nc2ccccn2)c1` (centres undefined), with inactive: 0%; and `CP(=O)(Nc1cccc(Br)c1)Oc1ccccc1` (centres undefined), with inactive: -6.95%.
For the molecule `Cc1ccc(C)c(NP(C)(=O)Oc2ccccc2)c1` (centres undefined), the Tm shift relative to glycine control is inactive: 0.35%.
On to `O=C(O)c1cccc(Nc2c([N+](=O)[O-])cc([N+](=O)[O-])cc2[N+](=O)[O-])c1`, for which the Tm shift relative to glycine control is inactive: -0.41%.
Under `CC1=NCCc2c1[nH]c1ccccc21.O=[N+]([O-])c1cc([N+](=O)[O-])c(O)c([N+](=O)[O-])c1` stands inactive: -0.71%.
